Test results reported in patent US20110250207A1 (OREGON HEALTH AND SCIENCE UNIVERSITY, published 2011).

Columns and labels:
[1] = biological target: fXI with Lys^83 and Gln^84 replaced with alanine (UniProt P03951)
[2] = biological target: fXI with Lys^83 and Gln^84 replaced with alanine (UniProt P03951); test: cell-based or functional assay

Row | thrombin generation (AUC) in fXI-deficient plasma initiated with α-thrombin [2] [nM] | Substance | rate of activation in solution relative to fXI^WT [1]
1 | – | α-thrombin | about 10% of the rate for fXI^WT
2 | 111 | α-thrombin (from UniProt P00734 328-622) (enzyme) | –
